Experimental data from ChEMBL document CHEMBL4808148, “HDAC6 screening dataset using tau-based substrate in an enzymatic assay yields selective inhibitors and activators” (2021).
Only a part is listed here, and it is no random draw.

Target: T1, Protein deacetylase HDAC6 (Homo sapiens) (UniProt Q9UBN7)
T1 sequence (whole entry): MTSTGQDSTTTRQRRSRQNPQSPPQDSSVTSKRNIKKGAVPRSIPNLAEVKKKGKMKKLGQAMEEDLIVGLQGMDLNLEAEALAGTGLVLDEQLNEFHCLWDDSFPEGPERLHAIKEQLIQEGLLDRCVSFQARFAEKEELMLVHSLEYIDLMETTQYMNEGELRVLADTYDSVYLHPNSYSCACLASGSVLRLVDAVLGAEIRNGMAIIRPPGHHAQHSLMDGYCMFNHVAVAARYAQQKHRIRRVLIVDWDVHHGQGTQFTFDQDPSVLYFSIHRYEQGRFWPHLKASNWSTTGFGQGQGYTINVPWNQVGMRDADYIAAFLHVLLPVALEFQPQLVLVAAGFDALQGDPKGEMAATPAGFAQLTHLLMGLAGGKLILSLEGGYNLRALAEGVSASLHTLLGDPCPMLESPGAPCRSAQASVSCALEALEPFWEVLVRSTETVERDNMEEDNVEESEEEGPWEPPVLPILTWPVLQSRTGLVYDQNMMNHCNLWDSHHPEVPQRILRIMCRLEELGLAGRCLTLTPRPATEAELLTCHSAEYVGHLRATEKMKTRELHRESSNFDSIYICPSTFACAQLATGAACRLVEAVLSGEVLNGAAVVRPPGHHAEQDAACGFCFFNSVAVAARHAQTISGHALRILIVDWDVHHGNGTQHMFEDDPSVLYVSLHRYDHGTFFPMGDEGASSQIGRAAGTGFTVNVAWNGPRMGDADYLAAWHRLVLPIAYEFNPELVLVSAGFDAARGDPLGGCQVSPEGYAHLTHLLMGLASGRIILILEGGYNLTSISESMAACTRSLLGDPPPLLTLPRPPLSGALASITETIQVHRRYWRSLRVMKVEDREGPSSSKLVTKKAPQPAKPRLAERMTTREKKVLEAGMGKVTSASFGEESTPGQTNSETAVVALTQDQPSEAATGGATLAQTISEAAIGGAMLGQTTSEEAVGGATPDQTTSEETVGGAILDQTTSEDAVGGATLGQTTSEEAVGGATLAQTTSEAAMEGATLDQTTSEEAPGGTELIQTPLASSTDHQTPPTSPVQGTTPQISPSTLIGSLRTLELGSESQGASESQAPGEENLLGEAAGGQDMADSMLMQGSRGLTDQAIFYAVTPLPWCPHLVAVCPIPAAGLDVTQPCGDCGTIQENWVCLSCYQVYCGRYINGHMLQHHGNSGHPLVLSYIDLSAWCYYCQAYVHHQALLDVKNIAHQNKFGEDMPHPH
Conditions: at 10 µM

For `CN(C(=O)Cc1ccc(Cl)c(Cl)c1)C1CCC2(CCCO2)CC1N1CCCC1` (stereo unspecified), which inhibition is on record?
Its inhibition is -5.69%.

With `O=C(OC1CN2CCC1CC2)c1ccccc1` (stereo unspecified) as the compound, how does the inhibition read?
The inhibition was -1.86%.

How did the inhibition turn out when `N[C@@H](Cc1ccc([N+]([O-])(CCCl)CCCl)cc1)C(=O)O` was run?
Its inhibition is -6.73%.

With `CN(C)[C@]1(c2ccccc2)CC[C@]2(CC1)OCCc1c3cc(F)ccc3[nH]c12` as the compound, how does the inhibition read?
The inhibition was 0%.

With `CN(C(=O)Cc1ccc(Cl)c(Cl)c1)[C@H]1CCCC[C@@H]1N1CCCC1` as the compound, how does the inhibition read?
Its inhibition is -2.05%.

Which inhibition does the source give for `O=P(O)(O)F` here?
The inhibition was -6.79%.
